Assays:
Assay type in all cases: binding
[1] = target: T1, doubly phosphorylated p38-alpha kinase (Homo sapiens, UniProt Q16539); experiment: Fluorescence affinity assay, doubly phosphorylated p38-alpha kinase
T1 construct: 6xHis ([…], seen only in the listing) (C); purchased Roche Applied Diagnostics
From the text: (§1) This fluorescence affinity assay is utilized in an affinity-based screen to identify small molecules which bind into switch control pockets of protein kinases. Binding of small molecule switch inhibitors displaces the switch control ligand phenylalanine of the DFG motif into an orientation which sterically blocks the ATP pocket. Such inhibitor-induced blockade of the ATP pocket is registered as an inhibition of binding of the fluoroprobe into the ATP pocket.
(§2) • 1. p38-alpha kinase • a. […] Polarstar Optima plate reader (BMG)
• 1. […] This dilution can be done automatically on a Tecan (or similar) robotic workstation or performed manually. • 3. Mix Solution A with the diluted compound solutions following Step 3 of Table 22. This step can be performed automatically on a Tecan (or similar) robotic workstation or performed manually. • 4. Incubate at 30° C. or room temp for 2 h, depending on protein stability. • 5. Read at emission wavelength 420 nm upon excitation at 340 nm. […]
A ratio greater than 1.0 indicates a preference for inhibiting the unphosphorylated form of p38-alpha kinase relative to the doubly phosphorylated form. A ratio less than 1.0 indicates a preference for inhibiting the doubly phosphorylated form of p38-alpha kinase relative to the unphosphorylated form.

Sequences of proteins named here, by UniProt entry; tags and fusion partners are left off. A line that says so, or that is headed by a name, gives the form on record, which may keep a tag or linker.
UniProt Q16539, with tags, fused parts or gaps: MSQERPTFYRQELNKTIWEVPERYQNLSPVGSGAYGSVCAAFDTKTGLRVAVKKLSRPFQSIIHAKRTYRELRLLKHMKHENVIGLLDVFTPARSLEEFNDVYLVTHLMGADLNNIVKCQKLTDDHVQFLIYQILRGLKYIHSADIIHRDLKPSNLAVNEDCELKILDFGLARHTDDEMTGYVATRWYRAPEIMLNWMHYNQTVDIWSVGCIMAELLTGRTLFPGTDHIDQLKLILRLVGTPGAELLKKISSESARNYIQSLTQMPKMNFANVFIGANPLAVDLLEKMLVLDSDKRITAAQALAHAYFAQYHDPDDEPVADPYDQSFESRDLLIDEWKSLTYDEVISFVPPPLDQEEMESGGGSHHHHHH
UniProt Q16539, with tags, fused parts or gaps DEL261-261: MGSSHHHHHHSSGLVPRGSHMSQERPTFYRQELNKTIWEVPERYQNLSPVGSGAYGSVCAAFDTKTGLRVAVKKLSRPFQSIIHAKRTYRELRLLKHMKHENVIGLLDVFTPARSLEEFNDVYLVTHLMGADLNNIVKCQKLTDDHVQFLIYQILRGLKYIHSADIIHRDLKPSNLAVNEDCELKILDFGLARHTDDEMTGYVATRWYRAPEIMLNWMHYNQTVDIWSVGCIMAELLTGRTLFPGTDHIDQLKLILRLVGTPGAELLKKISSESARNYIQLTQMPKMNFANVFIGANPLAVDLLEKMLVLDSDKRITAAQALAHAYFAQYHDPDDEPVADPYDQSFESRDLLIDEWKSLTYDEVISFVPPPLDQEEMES

[2] = target: T1, doubly phosphorylated p38-alpha kinase; experiment: Thermal denaturation of doubly phosphorylated p38-alpha kinase; conditions: 0.5 μM p38-alpha kinase, 20 μM small molecule
Description: (§3) Denaturation was monitored by measuring the absolute absorbance of the solutions at an appropriate wavelength (typically 230 nm and 240 nm) as a function of temperature. As the protein became denatured, additional UV absorbing functional groups became exposed causing an increase in absorbance at the melting temperature. […] The thermal data were collected using Agilent spectrophotometers and ChemStation UV/Vis Thermal Denaturation software.
The final concentration was 0.5 μM p38-alpha kinase and 20 μM small molecule. The final protein and buffer solution was mixed gently using a pipetter to minimize denaturing due to over aggressive mixing. The final solution was transferred to a 50 μL cuvette for analysis.
The protein and buffer solution was mixed gently using a pipetter to minimize denaturing due to over aggressive mixing. The final solution was transferred to a 50 μL cuvette for analysis.
(§4) A first derivative calculation with data smoothing was applied to the resulting data to report the point of inflection as the melting temperature.

[3] = target: T2, unphosphorylated p38-alpha kinase (Homo sapiens, UniProt Q16539, DEL261-261); experiment: Fluorescence affinity assay, unphosphorylated p38-alpha kinase
T2 construct: 48 (6×His-TEV tag, full length); 6×His-TEV tag (N); purchased Decode Genetics, Inc; host or cells: E. coli
From the text: as §1, §2
• 1. […] This dilution can be done automatically on a Tecan (or similar) robotic workstation or performed manually. • 3. […] Read at emission wavelength 420 nm upon excitation at 340 nm.
The reaction was initiated by addition of the enzyme. […] By comparison of RFU (relative fluorescence units) values with that of a control (in the absence of small molecule modulators), the percentage of inhibition at each concentration of the small molecules was calculated. IC50 values for the small molecule modulators were calculated from the % inhibition values obtained at a range of concentrations of the small molecule modulators using Prism (available from GraphPad, Inc.). When time-dependent inhibition was assessed, the plate was read at multiple reaction times such as 0.5, 1, 2, 3, 4 and 6 hours. The IC50 values were calculated at each time point. […]

[4] = target: T2, unphosphorylated p38-alpha kinase; experiment: Thermal denaturation of unphosphorylated p38-alpha kinase; conditions: 15 μM small molecule
From the text: as §3
The final protein and buffer solution was mixed gently using a pipetter to minimize denaturing due to over aggressive mixing. The final solution was transferred to a 50 μL cuvette for analysis.
The final solution was transferred to a 50 μL cuvette for analysis.
as §4

CC(C)(C)c1cc(NC(=O)Nc2cccc(Cl)c2Cl)n(-c2cccc(CC(N)=O)c2)n1 [Example 69]
IC50 [1]: 11 nM | ΔTm (° C.) relative to doubly phosphorylated p38 [2]: 9.1 °C | Ratio IC50s ([3]; doubly phosphorylated vs unphosphorylated p38-alpha, >1.0 = preference for unphosphorylated form): 1.2 | IC50 ([3]; unphosphorylated p38-alpha kinase): 9 nM | ΔTm (° C.) relative to unphosphorylated apo p38 [4]: 13.1 °C

Source: patent US20080220497A1, “Modulation of protein functionalities” (priority 2003, published 2008)
